High-throughput results deposited in PubChem by National Center for Advancing Translational Sciences (NCATS).
Sampled rows, rich in hits. Any-hit rate of the full collection: about 3.7%.
IL-2 act: IL-2 activation; activation, % (series mostly up to about 46 µM); 0.065% of 360,000 active; IL-2 activation reporter assay, cell-based qHTS; stimulated with anti-CD3/CD4/CD28 beads; in transgenic mouse T cells; in the data active = activation above about 50%; inconclusive = mostly about 30% to 49%; also: 0% is about no effect
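Readout is EGFP and DsRed signal by fluorescent plate cytometry after 18 h at 37 degrees C. Transgenic mouse T cells (750/well) received compound for 60 min before bead stimulation (anti-CD3, anti-CD4, anti-CD28); memory T cells served as non-tolerant control.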
ClpP mod: qHTS Assay for Activators of ClpP; ATP-dependent Clp protease proteolytic subunit (Bacillus subtilis (strain 168)), P80244; purified B. subtilis ClpP, FRET peptide cleavage, 20 min; Potency, µM (doses to about 57.5 µM), for the others: at the top dose activity change, negative = active; 1.9% of 340,000 active; active = well fitted falling curve with a large enough effect; inconclusive = small, poorly fitted or top-dose-only effect; inactive = no such curve, though single readings can be large or run the other way; also: potency is read from the fitted curve at half-maximal effect; the source files actives as falling curves though it sought activators and does not explain the sign; nearly all actives have a fitted effect of over 65% in size
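ClpP 10 microg/mL final, pH 8 Tris/KCl buffer with BSA, glycerol, Tween-20; compound pinned in; FRET-FV substrate; RT 20 min; Ex320/Em430; ΔFRET vs ADEP 5.8 microM, DMSO, no enzyme.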
miR-21 reporter: miR-21 reporter, rising signal | HeLa miR-21 FLuc reporter, luciferase, 48 h | Potency, µM (top dose mostly 38.3 µM), inactives show at the highest dose reporter change, positive = more light | 340,000 tested, under 10 active | AID 2288; active = well fitted rising curve with a large enough effect; inconclusive = small, poorly fitted or top-dose-only effect; inactive = no such curve, though single readings can be large or run the other way;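 note: % of control where 0% means no effect; miR-21 action dims this reporter so a rising signal means less miR-21 action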
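HeLa cells stably expressing CMV-driven firefly luciferase with a downstream miR-21 binding sequence, endogenously expressing miR-21, were treated with titrations (up to about 40uM final) for 48 hours at 37 degree Celsius. Luciferase luminescence was read after lysis.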
Nrf2 ARE act: activates Nrf2 signaling. AID 624171. Potency, µM (doses to about 46.1 µM), inactives show top-dose activation, hits mostly activators. 0.31% of 410,000 active. AREc32 ARE-luciferase reporter (MCF7-derived line), luminescence, 24 h; also: potency is read from the fitted curve at half-maximal effect; % of control where 0% means no effect; nearly all actives have a fitted effect of over 65% in size
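For detection, Steady-Glo was added and plates sat 30 min at RT; before that, AREc32_Fluc cells grown overnight in OPTI-MEM/5% FBS had been treated with 23 nL compound for 24 hr at 37 deg C.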
Nrf2 block: Nrf2 pathway inhibition. A549 ARE-Fluc reporter, luciferase luminescence, 18-24 h. Potency, µM (highest dose often 46 µM), for the others: at the highest dose activity change, negative = inhibition, most hits filed as inhibitors. 2.1% of 360,000 active; also: potency is read from the fitted curve at half-maximal effect; % is scaled to controls: 0 for no effect and ±100 for the full control effect; nearly all actives have a fitted effect of over 60% in size
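Nrf2 activity is the BugLite luminescence, read 15 min after reagent at room temperature, following CellTiter-Fluor cytotoxicity readout (30 min, 37C). Compound titrations were applied for 18-24 h to 5000 A549 ARE_Fluc cells/well in 5% FBS OPTI-MEM.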
A549 tox: kills or reduces viability of A549 cells in Nrf2 counter-screen; Potency, µM (highest dose often 46 µM), without a hit: at the highest dose activity change, negative = cytotoxicity, usual class: inhibitors; 0.16% of 390,000 active; A549 ARE-Fluc cells, CellTiter-Fluor viability, 18-24 h; also: potency is read from the fitted curve at half-maximal effect; % is scaled to controls: 0 for no effect and ±100 for the full control effect
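A549 ARE_Fluc cells in 5% FBS OPTI-MEM were exposed to compounds in concentration-response for 18-24 h at 37 deg C. Viability was read by CellTiter-Fluor fluorescence (Ex 405/Em 525) after 30 min, before the luciferase read.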
An asterisk follows results filed as active. Unless noted, calls follow the shape of the dose curve; as a rule, active = well fitted curve in the direction sought with a large enough effect; inconclusive = small, poorly fitted or top-dose-only effect, or another doubt; inactive = no such curve, though single readings can be large; an effect the other way counts as inactive or inconclusive.

Results for COc1ccc(Cn2ccnc2SCC(=O)Nc2ccc3c(c2)OCCO3)cc1 ?
ClpP mod: -1.4%; miR-21 reporter: -11.9%; Nrf2 ARE act: 4.0%; A549 tox: 2.1%

Results for COc1ccc(CC(=O)NNC(=O)c2cnccn2)cc1 ?
IL-2 act: -0.1; ClpP mod: -2.7%; miR-21 reporter: -0.7%; Nrf2 ARE act: -0.8%; Nrf2 block: 2.2%; A549 tox: 5.5%

How did COc1cc(C(=O)NC(=S)NNC(=O)c2cnccn2)cc(OC)c1OC do in these assays?
IL-2 act: 0.3; ClpP mod: -1.8%; miR-21 reporter: 27.0%; Nrf2 ARE act: 0.9%; Nrf2 block: 4.61µM*; A549 tox: -15.7%

How did CCCCOc1ccc(C(=O)NNC(=O)c2cnccn2)cc1OC do in these assays?
IL-2 act: -0.3; ClpP mod: -2.8%; Nrf2 ARE act: -0.1%; Nrf2 block: 10.3µM*; A549 tox: 0.3%

What do the screens show for `COc1ccccc1C(=O)NNC(=S)NC(=O)c1cc(OC)c(OC)c(OC)c1`?
IL-2 act: 1.0; ClpP mod: -1.9%; miR-21 reporter: -4.6%; Nrf2 ARE act: 0.4%; Nrf2 block: inconclusive; A549 tox: -11.6%

Results for Cn1c(=O)c(=O)n(C)c2cc(S(=O)(=O)Nc3ccc(Cl)c(C(F)(F)F)c3)ccc21 ?
ClpP mod: 1.3%; miR-21 reporter: -14.5%; Nrf2 ARE act: 0.3%; Nrf2 block: 7.2%; A549 tox: 1.0%

How did Cc1ccc(NC(=O)Cn2c(=O)n(Cc3ccc4c(c3)OCO4)c(=O)c3ccc(C(=O)NC4CCCCC4)cc32)cc1 do in these assays?
ClpP mod: -10.9%; miR-21 reporter: -8.4%; Nrf2 ARE act: -0.2%; Nrf2 block: 8.4%; A549 tox: 1.9%

What do the screens show for `Cc1ccc(NC(=O)c2sc(-n3nc(C)c(Cc4ccc5c(c4)OCO5)c3C)nc2C)cc1C`?
ClpP mod: -4.7%; miR-21 reporter: -1.9%; Nrf2 ARE act: -0.8%; Nrf2 block: 21.5%; A549 tox: 4.2%

What do the screens show for `CC(=O)c1cccc(NC(=O)c2sc(-n3nc(C)c(Cc4ccc5c(c4)OCO5)c3C)nc2C)c1`?
ClpP mod: -3.7%; miR-21 reporter: -5.8%; Nrf2 ARE act: -0.5%; Nrf2 block: 9.2µM*; A549 tox: inconclusive

Results for COC(=O)c1cc(OC)c(OC)cc1NC(=O)CCCCCN1C(=O)CCC1=O ?
IL-2 act: -2.2; ClpP mod: 28.2µM*; miR-21 reporter: -5.6%; Nrf2 ARE act: 0.6%; Nrf2 block: 10.0%; A549 tox: -0.4%

Next part (2 carried over from the part before).
What do the screens show for `CC(=O)c1cccc(NC(=O)c2sc(-n3nc(C)c(Cc4ccc5c(c4)OCO5)c3C)nc2C)c1`?
ClpP mod: -3.7%; miR-21 reporter: -5.8%; Nrf2 ARE act: -0.5%; Nrf2 block: 9.2µM*; A549 tox: inconclusive

Results for COC(=O)c1cc(OC)c(OC)cc1NC(=O)CCCCCN1C(=O)CCC1=O ?
IL-2 act: -2.2; ClpP mod: 28.2µM*; miR-21 reporter: -5.6%; Nrf2 ARE act: 0.6%; Nrf2 block: 10.0%; A549 tox: -0.4%

Results for COC(=O)c1cc(OC)c(OC)cc1NC(=O)CCC1CCCC1 ?
IL-2 act: -4.0; ClpP mod: 31.6µM*; miR-21 reporter: -5.8%; Nrf2 ARE act: -0.4%; Nrf2 block: 5.4%; A549 tox: 8.4%

How did CCCCCCCOc1ccc(CC(=O)NO)cc1 do in these assays?
ClpP mod: -5.4%

How did COc1ccc(NC(=O)/C(Cl)=C(/Cl)S(=O)Cc2ccccc2Cl)cn1 (centres undefined) do in these assays?
IL-2 act: -1.3; miR-21 reporter: inconclusive; Nrf2 ARE act: -2.9%; Nrf2 block: -134.8%; A549 tox: 14.6µM*

Results for CCOC(=O)/C(=N\Nc1ccc(Cl)cc1)c1csc(Nc2ccccc2)n1 ?
IL-2 act: 1.4; ClpP mod: 12.5%; miR-21 reporter: -5.0%; Nrf2 ARE act: 4.4%; Nrf2 block: 16.4µM*; A549 tox: inconclusive

How did CCC(=O)N(CCc1ccccc1)Cc1cc2cc(OC)ccc2[nH]c1=O do in these assays?
IL-2 act: 0.5; ClpP mod: 3.6%; miR-21 reporter: -0.5%; Nrf2 ARE act: -0.2%; Nrf2 block: -14.1%; A549 tox: -3.4%

How did CCOc1ccc2[nH]c(=O)c(CN(CCO)C(=O)CC)cc2c1 do in these assays?
IL-2 act: -0.3; ClpP mod: 28.2µM*; miR-21 reporter: -1.8%; Nrf2 ARE act: 0.2%; Nrf2 block: -0.8%; A549 tox: -3.7%
